# B1: Bt.4Q7Flg22 (peptide)
# peptide: DRLSSGKRINSASDDAAGLAIA
# B2: Bt.4Q7Flg22-Syn01 (peptide)
# peptide: DRLSSGKRINSAKDDAAGLAIA
# B3: Bt.4Q7Syn01Flg15 (peptide)
# peptide: RINSAKDDAAGLAIA
# B4: Bt.4Q7Flg22-Syn03 (peptide)
# peptide: QRLSSGKRINSASDDAAGLAIA
# B5: Ec.Flg22 (peptide)
# peptide: ERLSSGLRINSAKDDAAGQAIA
# Assays:
# Assay in all cases: cell-based or functional assay
# [1] = target: Flagellin-sensing 2 (FLS2) of tomato (tomato)
# [2] = target: FLAGELLIN SENSING 2 (FLS2) of corn (corn)
# [3] = target: FLS receptor at the plant cell surface (plant of Table 32 not stated)
# [4] = target: FLAGELLIN SENSING 2 (FLS2) of soybean (soybean)
Binder,"ROS activity in tomato leaf tissue, Average RLU value, 5 nM Flg polypeptide [1]","ROS activity assay with corn stalk tissue, RLU, 10 nM [2]","ROS activity (total RLU, % of Bt.4Q7Flg22 at 25 nM), peptide at 0.25 nM [3]","ROS activity (total RLU, % of Bt.4Q7Flg22 at 25 nM), peptide at 0.5 nM [3]","ROS activity (total RLU, % of Bt.4Q7Flg22 at 25 nM), peptide at 1 nM [3]","ROS activity (total RLU, % of Bt.4Q7Flg22 at 25 nM), peptide at 5 nM [3]","ROS activity (total RLU, % of Bt.4Q7Flg22 at 25 nM), peptide at 10 nM [3]","ROS activity (total RLU, % of Bt.4Q7Flg22 at 25 nM), peptide at 25 nM [3]","ROS activity (total RLU, % of Bt.4Q7Flg22 at 25 nM), peptide at 100 nM [3]","ROS activity (total RLU, % of Bt.4Q7Flg22 at 25 nM), peptide at 1000 nM [3]","ROS assay with soybean leaf tissue, RLU, 10 nM [4]"
B1,33100 RLU,6030 RLU,8.12%,14.9%,23.9%,57%,76.8%,100%,114%,128%,10800 RLU
B2,,17700 RLU,23.6%,55%,57%,113%,116%,118%,121%,121%,62000 RLU
B3,,14100 RLU,,,,,,,,,43000 RLU
B4,,,14.9%,14.9%,41.5%,57%,85.7%,111%,162%,97.7%,
B5,426000 RLU,,,,,,,,,,
